Measurements from ChEMBL document CHEMBL1144321, “Synthesis and evaluation of novel peripherally restricted kappa-opioid receptor agonists” (Bioorg Med Chem Lett, 2005).

Tests used:
[1] = biological target: Opioid receptors; delta & kappa (Homo sapiens) (UniProt P41145+P41143); assay: Selectivity ratio of inhibition of kappa opioid receptor to that of delta receptor was determined
[2] = biological target: Opioid receptors; mu & kappa (Homo sapiens) (UniProt P41145+P35372); assay: Selectivity ratio of inhibition of kappa opioid receptor to that of mu receptor was determined

SMILES	Ratio [1]	Ratio [2]
CN(C(=O)Cc1ccc(C(F)(F)F)cc1)C(CN1CCCC1)c1cccc(O)c1 (racemic)	230	68
COc1cccc(C(CN2CCCC2)N(C)C(=O)Cc2ccc(C(F)(F)F)cc2)c1 (racemic)	> 1000	870
CN(C(=O)Cc1ccc(C(F)(F)F)cc1)[C@H](CN1CCCC1)c1cccc(N)c1	130	110
